# Experimental data published in patent publication US9295253B2, “Use of abscisic acid on ornamental plants” (Valent BioSciences Corporation, priority 2007, dated 2016).
# Tests used:
# Agapanthus = assay: Drought tolerance and side effects after ABA drench, irrigation withheld; type: in vivo; conditions: 250 ppm ABA drench, 2.5 = unmarketable, 4 = severe
# From the text: (§1) Many different commercial ornamental crops were obtained from local retailers, or from wholesale nurseries, and transported to a greenhouse for testing. Plants were watered to saturation and allowed to stand and drain for about one hour. Plants were selected for uniformity based on leaf area and arranged in a randomized complete block design, or a completely randomized design, on the greenhouse bench. The plants were sprayed or drenched with water or treatment solution equaling about 5-10% of the pot volume. The plants were held without irrigation until all the plants wilted to a point when they were determined to be unmarketable. The plants were rated daily for the extent of wilting on a scale from 1 for no wilting to 4 for complete wilting. A rating of 2.5 was the point at which a plant was determined to be unmarketable and the previous day was recorded as the marketable life of that plant in days. The plants were rated for the extent of lower leaf yellowing or leaf or flower abscission on a scale from 1 for no yellowing or abscission to 4 for complete yellowing or abscission. A rating of 2.5 was the point at which a plant was determined to be unmarketable.
# (§2) Ornamental bedding plants were treated (sprayed or drenched) with water or 250 ppm abscisic acid (S-ABA; ABA; S-(+)-abscisic acid; +-ABA, (+)-(S)-cis,trans-abscisic acid, (+)-(S)-cis,trans-ABA; S-ABA; (S)-5-(1-hydroxy-2,6,6,-trimethyl-4-oxo-2-cyclohexen-1-yl)-3-methyl-(2Z,4E)-pentadienoic acid; CAS no. 21293-29-8) and then irrigation was withheld until all the plants wilted. Plants were individually rated on a daily basis for degree of wilting and other undesirable characteristics like leaf yellowing.
# (§3) In Table 1, plants were drenched with water or a 250 ppm ABA solution, and held in a greenhouse without irrigation.
# Alyssum = assay: as above; type: in vivo; conditions: 250 ppm ABA drench, 2.5 = unmarketable, 4 = severe
# From the text: as §1, §2, §3
# Calibrachoa = assay: as above; type: in vivo
# From the text: as §1, §2, §3
# Celosia = assay: as above; type: in vivo; conditions: 250 ppm ABA drench, 2.5 = unmarketable, 4 = severe
# From the text: as §1, §2, §3
# Chrysanthemum = assay: as above; type: in vivo; conditions: 250 ppm ABA drench, 2.5 = unmarketable, 4 = severe
# From the text: as §1, §2, §3
# Coleus = assay: as above; type: in vivo; conditions: 250 ppm ABA drench, 2.5 = unmarketable, 4 = severe
# From the text: as §1, §2, §3
# Cosmos = assay: as above; type: in vivo; conditions: 250 ppm ABA drench, 2.5 = unmarketable, 4 = severe
# From the text: as §1, §2, §3
# Cuphea = assay: as above; type: in vivo; conditions: 250 ppm ABA drench, 2.5 = unmarketable, 4 = severe
# From the text: as §1, §2, §3
# Dianthus = assay: as above; type: in vivo; conditions: 250 ppm ABA drench, 2.5 = unmarketable, 4 = severe
# From the text: as §1, §2, §3
# Euryops = assay: as above; type: in vivo; conditions: 250 ppm ABA drench, 2.5 = unmarketable, 4 = severe
# From the text: as §1, §2, §3
# Gazania = assay: as above; type: in vivo; conditions: 250 ppm ABA drench, 2.5 = unmarketable, 4 = severe
# From the text: as §1, §2, §3
# Hydrangea = assay: as above; type: in vivo; conditions: 250 ppm ABA drench, 2.5 = unmarketable, 4 = severe
# From the text: as §1, §2, §3
# Impatiens = assay: as above; type: in vivo; conditions: 250 ppm ABA drench, 2.5 = unmarketable, 4 = severe
# From the text: as §1, §2, §3
# Lantana = assay: as above; type: in vivo; conditions: 250 ppm ABA drench, 2.5 = unmarketable, 4 = severe
# From the text: as §1, §2, §3
# Lobelia = assay: as above; type: in vivo; conditions: 250 ppm ABA drench, 2.5 = unmarketable, 4 = severe
# From the text: as §1, §2, §3
# Marigold = assay: as above; type: in vivo; conditions: 250 ppm ABA drench, 2.5 = unmarketable, 4 = severe
# From the text: as §1, §2, §3
# New Guinea Impatiens = assay: as above; type: in vivo
# From the text: as §1, §2, §3
# Pansy = assay: as above; type: in vivo
# From the text: as §1, §2, §3
# Pentas = assay: as above; type: in vivo; conditions: 250 ppm ABA drench, 2.5 = unmarketable, 4 = severe
# From the text: as §1, §2, §3
# Petunia = assay: as above; type: in vivo; conditions: 250 ppm ABA drench, 2.5 = unmarketable, 4 = severe
# From the text: as §1, §2, §3
# Poinsettia = assay: as above; type: in vivo; conditions: 250 ppm ABA drench, 2.5 = unmarketable, 4 = severe
# From the text: as §1, §2, §3
# Rose = assay: as above; type: in vivo; conditions: 250 ppm ABA drench, 2.5 = unmarketable, 4 = severe
# From the text: as §1, §2, §3
# Salvia = assay: as above; type: in vivo; conditions: 250 ppm ABA drench, 2.5 = unmarketable, 4 = severe
# From the text: as §1, §2, §3
# Snapdragon = assay: as above; type: in vivo; conditions: 250 ppm ABA drench, 2.5 = unmarketable, 4 = severe
# From the text: as §1, §2, §3
# Vinca = assay: as above; type: in vivo
# From the text: as §1, §2, §3
# Geranium cuttings = conditions: cited from earlier work
# [1] = 250 ppm ABA drench, scale 1 = no abscission, 2.5 = unmarketable, 4 = severe
# [2] = 250 ppm ABA drench, scale 1 = no yellowing, 2.5 = unmarketable, 4 = severe
substance,measurement,setting,value
"(S)-5-(1-hydroxy-2,6,6,-trimethyl-4-oxo-2-cyclohexen-1-yl)-3-methyl-(2Z,4E)-pentadienoic acid [ABA]","Leaf or flower abscission, average rating",Agapanthus; scale 1 = no abscission,1
same,"Lower leaf yellowing, average rating",Agapanthus; scale 1 = no yellowing,2
same,"Leaf or flower abscission, average rating",Alyssum; scale 1 = no abscission,1
same,"Lower leaf yellowing, average rating",Alyssum; scale 1 = no yellowing,3.5
same,"Leaf or flower abscission, average rating",Calibrachoa; [1],1
same,"Lower leaf yellowing, average rating",Calibrachoa; [2],3
same,Undesirable side effects (in words),Calibrachoa; ABA application,severe leaf yellowing occur before wilting symptoms develop in the control and treated plants
same,"Leaf or flower abscission, average rating",Celosia; scale 1 = no abscission,1
same,"Lower leaf yellowing, average rating",Celosia; scale 1 = no yellowing,1
same,"Leaf or flower abscission, average rating",Chrysanthemum; scale 1 = no abscission,1
same,"Lower leaf yellowing, average rating",Chrysanthemum; scale 1 = no yellowing,1
same,"Leaf or flower abscission, average rating",Coleus; scale 1 = no abscission,1
same,"Lower leaf yellowing, average rating",Coleus; scale 1 = no yellowing,1
same,"Leaf or flower abscission, average rating",Cosmos; scale 1 = no abscission,1
same,"Lower leaf yellowing, average rating",Cosmos; scale 1 = no yellowing,1
same,"Leaf or flower abscission, average rating",Cuphea; scale 1 = no abscission,1
same,"Lower leaf yellowing, average rating",Cuphea; scale 1 = no yellowing,1
same,"Leaf or flower abscission, average rating",Dianthus; scale 1 = no abscission,1
same,"Lower leaf yellowing, average rating",Dianthus; scale 1 = no yellowing,1
same,"Leaf or flower abscission, average rating",Euryops; scale 1 = no abscission,1
same,"Lower leaf yellowing, average rating",Euryops; scale 1 = no yellowing,1
same,"Leaf or flower abscission, average rating",Gazania; scale 1 = no abscission,1
same,"Lower leaf yellowing, average rating",Gazania; scale 1 = no yellowing,3
same,"Leaf or flower abscission, average rating",Hydrangea; scale 1 = no abscission,1
same,"Lower leaf yellowing, average rating",Hydrangea; scale 1 = no yellowing,1
same,"Leaf or flower abscission, average rating",Impatiens; scale 1 = no abscission,1
same,"Lower leaf yellowing, average rating",Impatiens; scale 1 = no yellowing,1
same,"Leaf or flower abscission, average rating",Lantana; scale 1 = no abscission,1
same,"Lower leaf yellowing, average rating",Lantana; scale 1 = no yellowing,1
same,"Leaf or flower abscission, average rating",Lobelia; scale 1 = no abscission,2.5
same,"Lower leaf yellowing, average rating",Lobelia; scale 1 = no yellowing,3
same,"Leaf or flower abscission, average rating",Marigold; scale 1 = no abscission,1
same,"Lower leaf yellowing, average rating",Marigold; scale 1 = no yellowing,1
same,"Leaf or flower abscission, average rating",New Guinea Impatiens; [1],1
same,"Lower leaf yellowing, average rating",New Guinea Impatiens; [2],1
same,Undesirable side effects (in words),New Guinea Impatiens; ABA application,without any noticeable undesirable side effects
same,"Leaf or flower abscission, average rating",Pansy; [1],1
same,"Lower leaf yellowing, average rating",Pansy; [2],3
same,ABA-induced leaf yellowing (in words),Pansy; ABA application,often occurs
same,"Leaf or flower abscission, average rating",Pentas; scale 1 = no abscission,1
same,"Lower leaf yellowing, average rating",Pentas; scale 1 = no yellowing,1
same,"Leaf or flower abscission, average rating",Petunia; scale 1 = no abscission,1
same,"Lower leaf yellowing, average rating",Petunia; scale 1 = no yellowing,1.9
same,"Leaf or flower abscission, average rating",Poinsettia; scale 1 = no abscission,2.5
same,"Lower leaf yellowing, average rating",Poinsettia; scale 1 = no yellowing,3
same,"Leaf or flower abscission, average rating",Rose; scale 1 = no abscission,1
same,"Lower leaf yellowing, average rating",Rose; scale 1 = no yellowing,4
same,"Leaf or flower abscission, average rating",Salvia; scale 1 = no abscission,1
same,"Lower leaf yellowing, average rating",Salvia; scale 1 = no yellowing,1
same,"Leaf or flower abscission, average rating",Snapdragon; scale 1 = no abscission,1
same,"Lower leaf yellowing, average rating",Snapdragon; scale 1 = no yellowing,1.3
same,"Leaf or flower abscission, average rating",Vinca; [1],3
same,"Lower leaf yellowing, average rating",Vinca; [2],2.5
same,Flower abscission (in words),Vinca; ABA application,often occurs
same,Leaf yellowing,Geranium cuttings,causes the undesirable effect of leaf yellowing
